The chains behind the UniProt entries cited, without tags or fusion partners. Where a name states a change or a piece, a line headed by the entry shows the natural chain unless it says otherwise.
UniProt P53341: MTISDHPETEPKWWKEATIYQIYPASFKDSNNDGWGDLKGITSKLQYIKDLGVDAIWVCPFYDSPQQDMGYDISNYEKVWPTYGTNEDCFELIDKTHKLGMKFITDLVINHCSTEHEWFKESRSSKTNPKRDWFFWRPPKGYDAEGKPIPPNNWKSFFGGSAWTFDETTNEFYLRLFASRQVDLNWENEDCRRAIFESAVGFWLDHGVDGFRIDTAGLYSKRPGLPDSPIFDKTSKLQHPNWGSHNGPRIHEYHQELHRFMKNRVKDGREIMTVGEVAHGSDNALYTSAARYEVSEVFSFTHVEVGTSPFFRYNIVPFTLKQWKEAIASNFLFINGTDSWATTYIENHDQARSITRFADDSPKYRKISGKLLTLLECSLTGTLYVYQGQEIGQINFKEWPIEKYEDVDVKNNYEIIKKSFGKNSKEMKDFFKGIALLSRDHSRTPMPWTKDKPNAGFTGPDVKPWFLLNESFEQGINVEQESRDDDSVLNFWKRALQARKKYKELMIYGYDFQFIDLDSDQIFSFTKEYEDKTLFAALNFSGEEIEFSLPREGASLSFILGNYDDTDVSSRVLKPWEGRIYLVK

In PMC10528180, “Inhibitory Mechanism of Quercimeritrin as a Novel α-Glucosidase Selective Inhibitor” (Foods, 2023):

Molecular target: T1, α-glucosidase (Saccharomyces cerevisiae, UniProt P53341)
T1 construct: purchased Sigma-Aldrich Co
Format: biochemical
Conditions: inhibition at 500 µM of both enzymes compared
Description: The other reagents used in this experiment are analytically pure reagents purchased from Sigma-Aldrich Co. (St. Louis, MI, USA) unless specified otherwise.
The in vitro α-glucosidase activity assay was determined using spectrophotometry, as previously reported, with only minor modifications. In phosphate buffer with a pH of 6.8, 0.5 U/mL of α-glucosidase and the appropriate quantity of p-nitrophenyl-D-glucopyranoside (pNGP) were produced. […] Gradient dilution with a phosphate-buffered solution was used to create sample solutions of various concentrations. First, different concentrations of compound (10 μL), an enzyme solution (40 μL), and potassium phosphate buffer (100 μL) were pre-incubated in 96-well plates at 37 °C for 10 min.
The enzymatic inhibitory activity of the tested compounds was calculated using the following formula: Inhibition %=[(Abs control−Abs sample)/Abs control]×100
The IC50 values of the tested compounds were calculated using nonlinear fitting (logit method).

## O=c1c(O)c(-c2ccc(O)c(O)c2)oc2cc(O[C@@H]3O[C@H](CO)[C@@H](O)[C@H](O)[C@H]3O)cc(O)c12 [Quercimeritrin]
  selectivity for glucosidase over α-amylase among the 12 compounds: selective inhibition of glucosidase
